The nature of the data set: Liposome leakage, sedimentation method. The format is physicochemical. The procedure:
Liposome Leakage, Sedimentation Method. Liposome samples were diluted to 3-5 mL and left on an orbital shaker at 22° C. At specific time points, the liposomes were sedimented in a centrifuge at 300×g for 5 minutes and an aliquot of the clear supernatant was analyzed spectrophotometrically for drug and loading base content. After measurement, the solution was returned to the liposome suspension, which was vortexed and returned to the orbital shaker.
Then, 400 microliters of a pyridinium salt solution (prewarmed to 58° C.) were added to the lipid suspension. The mixture was kept at 58° C. for 5 minutes and then 100 microliters of the pyridinium salt solution were added. The mixture was cooled and diluted with 0.99% w/v sodium chloride. […] A total of three washes were performed. Naltrexone solution was then added in 150 mM citrate (pH 7.0) and the mixture was left to load for 48 hours. After loading, residual non-loaded naltrexone and released pyridine were removed by dilution with saline and sedimentation a total of three times. Naltrexone and pyridine content were measured spectroscopically. The samples were subsequently monitored for release of naltrexone using the sedimentation method. Two trials were performed for each condition.

For the substance pyridinium sulfate, the “release of naltrexone in 900 hours” value is reported as roughly 5%.

These data come from patent US12059499B2, “Liposome loading” (PLUMB PHARMACEUTICALS, INC., priority 2015, dated 2024).
